Values quoted from earlier work as cited in patent US5700682A, “Mechanism based screen for retinoid X receptor agonists and antagonists” (American Cyanamid Company, priority 1995, dated 1997).

System: RXRα and RARα together
Settings: mammalian cells; low concentrations of ligand; cited from earlier work

## CC1=C(/C=C/C(C)=C\C=C\C(C)=C\C(=O)O)C(C)(C)CCC1 [9-cis-RA, 9-cis-retinoic acid]
  Activation of transcription by RXRα and RARα together: can activate transcription

## CC1=C(/C=C/C(C)=C/C=C/C(C)=C/C(=O)O)C(C)(C)CCC1 [all-trans-RA, all-trans-retinoic acid]
  Activation of transcription by RXRα and RARα together: can activate transcription
